According to patent US6797710B2, “Heterocyclic derivatives and their use as antithrombotic agents” (Akzo Nobel N.V., priority 1997, dated 2004):

Legend:
[1] = biological target: Human thrombin (Homo sapiens, UniProt P00734); experiment: Anti-thrombin assay (hydrolysis of chromogenic substrate S-2238); assay type: biochemical; conditions: pH 7.4; read-out: Antithrombin activity: IC50
Protocol: Thrombin (Factor IIa) is a factor in the coagulation cascade.
The anti-thrombin activity of compounds of the present invention was assessed by measuring spectrophotometrically the rate of hydrolysis of the chromogenic substrate s-2238 exterted by thrombin. This assay for anti-thrombin activity in a buffer system was used to assess the IC50-value of a test compound.
Preparation of test and reference compound solutions
The test and reference compounds are dissolved in Milli-Q water to give stock concentrations of 10^−2 mol·l^−1. Each concentration is stepwise diluted with the vehicle to give concentrations of 10^−3, 10^−4 and 10^−5 mol·l^−1. […]
At room temperature 0.075 ml and 0.025 ml test compound or reference compound solutions or vehicle are alternately pipetted into the wells of a microtiter plate and these solutions are diluted with 0.115 ml and 0.0165 ml TNP buffer, respectively. […] Starting after 1 min of incubation, the absorbance of each sample at 405 nm is measured every 2,min. for a period of 90 min. using a kinetic microtiter plate reader (Twinreader plus, Flow Laboratories).
All data are collected in an IBM personal computer using LOTUS-MEASURE. For each compound concentration (expressed in mol·l^−1 reaction mixture) and for the blank the absorbance is plotted versus the reaction time in min. […]

[2] = biological target: Bovine Factor Xa (Bos taurus, UniProt P00743); experiment: Anti-factor Xa assay (hydrolysis of chromogenic substrate S-2222); assay type: biochemical
Text: Activated Factor X (Xa) is a factor in the coagulation cascade. […] This assay for anti-Xa activity in a buffer system was used to assess the IC50-value of the test compound.
In general the followed procedure and test conditions were analogous to those of the anti-thrombin assay as described above. Differences are indicated below.

| Compound | IC50 [1] [µM] | IC50 [2] [µM] |
| --- | --- | --- |
| COc1cc(C)c(S(=O)(=O)N[C@@H](CC(=O)OC(C)(C)C)C(=O)NC(Cc2ccc3c(N)nccc3c2)C(=O)N2CCCCC2)c(C)c1C (mixture of isomers) [Example 8, (3S)-4-[[1-[(1-amino-6-isoquinolinyl)methyl]-2-oxo-2-(1-piperidinyl)ethyl]amino]-3-[[(4-methoxy-2,3,6-trimethylphenyl)sulfonyl]amino]4-oxo-butanoic acid 1,1-dimethylethylester hydrochloride] | 0.082 |  |
| COc1ccc2ccc(S(=O)(=O)NC(Cc3cc4c(N)nccc4s3)C(=O)N3CCN(S(C)(=O)=O)CC3)cc2c1 (stereo not drawn) [Example 14, 1-[3-(4-aminothieno[3,2c]pyridin-2-yl)-2-[[(7-methoxy-2-naphthalenyl)sulfonyl]amino]-1-oxopropyl]-4-(methylsulfonyl)piperazine hydrochloride] |  | 41 |
| COc1ccc2ccc(S(=O)(=O)NC(Cc3cc4c(N)nccc4s3)C(=O)N3CCN(C)CC3)cc2c1 (stereo not drawn) [Example 24, 1-[3-(4-aminothieno[3,2c]pyridin-2-yl)-2-[[(7-methoxy-2-naphthalenyl)sulfonyl]amino]-1-oxopropyl]-4-methylpiperazine dihydrochloride] |  | 14 |

Structures can show the parent of a compound that is named as a salt.
